Measured values published in patent US9416118B2, “Docosahexaenoyl ethanolamides” (The Brigham and Women's Hospital, Inc., priority 2011, dated 2016).

Chains of the proteins cited; added tags and fusions are not shown.
UniProt P34972, whole entry: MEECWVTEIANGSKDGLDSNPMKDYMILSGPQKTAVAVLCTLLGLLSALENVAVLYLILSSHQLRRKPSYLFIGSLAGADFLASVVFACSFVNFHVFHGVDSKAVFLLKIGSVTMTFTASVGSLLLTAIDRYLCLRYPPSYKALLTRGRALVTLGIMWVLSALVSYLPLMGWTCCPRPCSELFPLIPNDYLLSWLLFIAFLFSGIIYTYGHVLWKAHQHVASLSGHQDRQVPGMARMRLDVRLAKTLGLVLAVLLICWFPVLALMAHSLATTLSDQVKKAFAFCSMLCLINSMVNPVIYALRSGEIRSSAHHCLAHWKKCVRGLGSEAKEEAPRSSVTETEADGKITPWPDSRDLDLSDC

Target: human CB2 receptor (Homo sapiens, UniProt P34972)
Assay: CB2 beta-arrestin receptor activation (PathHunter chemiluminescence)
Assay type: cell-based
Procedure: FIG. 4. […] Ligand receptor interactions were determined by increases in chemiluminescence generated upon interaction of the EA labeled beta arrestin with the Pro-Link tagged receptor (see Methods). […] See text for more details.
Receptor activation with the CB2 beta arrestin system was carried out essentially as in (20,21). HEK cells stably overexpressing human CB2 receptor tagged with Pro-Link and EA labeled beta-arrestin (Discoverx, Fremont Calif.) were plated at 20,000 cells/well of a 96 well plate. […] Ligand receptor interaction was determined by measuring chemiluminescence using the Pathhunter EFC detection kit (Discoverx, Fremont, Calif.), generated upon coupling of the EA labeled beta arrestin with the Pro-Link tagged receptor, with a plate reader (Envision, Perkin Elmer, Santa Clara, Calif.).
To this end, recombinant human CB receptors were overexpressed in a beta-arrestin system as described in Experimental Procedures.

CCCCC/C=C\C/C=C\C/C=C\C/C=C\CCCC(=O)NCCO [AEA, arachidonoylethanolamide]
EC50: ~0.11 nM
